Assay results reported in PMC7150891, “Mertansine Inhibits mRNA Expression and Enzyme Activities of Cytochrome P450s and Uridine 5′-Diphospho-Glucuronosyltransferases in Human Hepatocytes and Liver Microsomes” (Pharmaceutics, 2020).

How the values were obtained:
[1] = system: UGT1A1 mRNA; assay: UGT1A1 mRNA level in human hepatocytes after 48 h treatment (RT-PCR); details: Omeprazole 50 μM, Lot 321
[2] = system: UGT1A4 mRNA; assay: UGT1A4 mRNA level in human hepatocytes after 48 h treatment (RT-PCR); details: Omeprazole 50 μM

Structure (SMILES): COc1ccc2[nH]c([S+]([O-])Cc3ncc(C)c(OC)c3C)nc2c1 (stereo not shown) [Omeprazole, omeprazole]
- UGT1A1 mRNA (Fold Change) [1]: 4.05 ± 0.53 Fold Change
- UGT1A4 mRNA (Fold Change) ([2]; Lot 319): 3.31 ± 0.35 Fold Change
- UGT1A4 mRNA (Fold Change) ([2]; Lot 321): 4.13 ± 0.66 Fold Change
- UGT1A4 mRNA (Fold Change) ([2]; Lot 361): 3.7 ± 0.62 Fold Change
